Measurements: patent US12390473B2, “Methods of treating tyrosine kinase inhibitor-induced diarrhea” (THE REGENTS OF THE UNIVERSITY OF CALIFORNIA, priority 2019, dated 2025)

Target: Ca2+-activated K+ channels (Homo sapiens, UniProt O15554)
Test: Inhibition of thapsigargin-induced short-circuit current in T84 cells (FIG. 11A)
Format: cell-based
Details: 2 μM thapsigargin after 25 min 20 μM afatinib

Structure (SMILES): NC(=O)C(c1ccccc1)(c1ccc(F)cc1)c1ccc(F)cc1 [senicapoc]
- IC50 for inhibition of Ca2+-dependent basolateral K+ conductance: low micromolar
